Measured values as given in PubChem BioAssay AID1241 (SRMLSC, 2008).

Test: NF-kB promoter reporter activators, neuronal cells, dose response, cell-based, SH-SY5Y, luciferase (AID 1241)
Conditions: fold induction

EC50: 5.2 µM
SMILES: Oc1ccc(/C=C/c2cc(O)cc(O)c2)cc1
